# AlphaSeq binding of Ab-14 light chain variants to a spike HR2 peptide

Data: MIT Lincoln Laboratory AlphaSeq set, Li et al. 2023, doi:10.1038/s41467-023-39022-2, as distributed in FLAb.

Target peptide (SARS-CoV-2 spike, HR2 region): PDVDLGDISGINAS

Ab-14 is the parent antibody, in scFv form: VH, then a 15-residue (Gly4Ser)3 linker, then VL. The heavy chain is unchanged in all variants.
VH: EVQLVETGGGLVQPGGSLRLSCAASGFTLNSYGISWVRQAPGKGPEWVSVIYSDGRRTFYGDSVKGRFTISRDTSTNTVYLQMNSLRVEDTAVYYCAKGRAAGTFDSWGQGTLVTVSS
VL: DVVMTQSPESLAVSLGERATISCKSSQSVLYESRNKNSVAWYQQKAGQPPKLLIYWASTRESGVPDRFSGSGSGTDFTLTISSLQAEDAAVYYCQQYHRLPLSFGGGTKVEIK

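These sequences belong to a second round, designed from the earlier measurements on random variants of the parent. Several design methods are mixed in this list. The assay is AlphaSeq: two haploid yeast populations carry antibody and antigen on their surface. Pairs that bind mate more often; barcode pairs of the diploids are counted by sequencing. A regression on co-assayed BCL2-family reference pairs converts the normalised counts of each replicate to an apparent Kd. Mating was done six times.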

Substitutions are numbered in sequence along the VL above, starting at 1 (not Kabat). This list holds designs with at most six substitutions. Numbers give log10(Kd / nM), so 0 is 1 nM and 3 is 1 µM. Smaller is tighter. The mean shown is taken over the replicates in which the pair was detected. "not detected" marks a missing value. The strain was present, yet no cells mated with the target were sequenced in any replicate, which points to weak or no binding. The authors' rule: three or more of the six replicates give a measured affinity, fewer mean a poor binder. Nonspecific signal, from three strains lacking the peptide, appeared in 4% of pairings of all light chain designs, centred on 2.64 (5% of these signals below 1.59); values are not corrected for it. Also given: how often the same scFv was detected with the empty control strains. Values of this round are not directly comparable with the first-round values of the same sequences.

| changes | mean log10 Kd (nM) | detected | signal with controls |
|---|---|---|---|
| S25L+S26Y+V29G+W56N | 0.06 | 6 of 6 | 3 of 18 |
| S25I+S28G+R99V | 1.83 | 4 of 6 | 1 of 18 |
| S25L+V29Q+K36S+W56N+A57G+Q96D | 0.36 | 6 of 6 | 1 of 18 |
| S25L+V29E+L30D+W56N+E61L | 0.04 | 6 of 6 | 1 of 18 |
| Y31L+E32Q+R60Q | not detected | 0 of 6 | 0 of 18 |
| S25V+N35M+W56D+E61C+S103L | 0.26 | 6 of 6 | 0 of 18 |
| Q27P+W56N+E61M | 0.05 | 6 of 6 | 0 of 18 |
| Q27V | not detected | 0 of 6 | 1 of 18 |
| S25F+V29F+W56G+Q96A | 0.57 | 6 of 6 | 0 of 18 |
| S25V+S26E+V29N+W56N | 0.09 | 6 of 6 | 3 of 18 |
| S25Q+S38A+W56E | 0.39 | 6 of 6 | 1 of 18 |
| S25A+V29W+W56G | -0.38 | 6 of 6 | 0 of 18 |
| Q27H+V29L+L102E | not detected | 0 of 6 | 0 of 18 |
| S25L+S26R+V29T+K36P+W56N | 0.19 | 6 of 6 | 1 of 18 |
| S25A+V29F+N35W+W56G+T59Q | 0.66 | 6 of 6 | 2 of 18 |
| S25L+S26R+V29T+L30K+K36Q+E61L | 1.41 | 6 of 6 | 3 of 18 |
| E32Q+V39H+W56A | not detected | 0 of 6 | 0 of 18 |
| S25D+W56G | 0.04 | 6 of 6 | 0 of 18 |
| K24H+S25L+Q27W+S28V+V29E+W56N | 0.25 | 6 of 6 | 2 of 18 |
| S25L+V29N+W56E | 0.28 | 6 of 6 | 0 of 18 |
| S25L+S26Q+L30E+W56E+E61L | -0.19 | 6 of 6 | 1 of 18 |
| S25F+L30R+R60N+H98G+L102G | 3.85 | 1 of 6 | 0 of 18 |
| Y31M+W56S+E61S+L100Y | 2.71 | 4 of 6 | 2 of 18 |
| S38N+W56H+S62D | 0.19 | 6 of 6 | 0 of 18 |
| S26A+T59R | not detected | 0 of 6 | 0 of 18 |
| S25M+Q27P+V29H+W56N+S62T | 0.14 | 6 of 6 | 0 of 18 |
| S25L+S26D+Q27N+V29T+N35Q | 1.11 | 6 of 6 | 0 of 18 |
| K24H+S25I+N37G+W56K | 0.55 | 6 of 6 | 0 of 18 |
| S25V+V29F+S38A+W56G+P101W | 0.10 | 6 of 6 | 0 of 18 |
| Q27I+V29Y+Y31E+W56E+S62D | 1.06 | 5 of 6 | 0 of 18 |
| S38E | 2.65 | 1 of 6 | 1 of 18 |
| S25N+K36Q+W56K | 0.48 | 6 of 6 | 0 of 18 |
| S25L+Q27G+V29M+W56G | -0.48 | 6 of 6 | 2 of 18 |
| S25L+S26R+V29T+L100K | not detected | 0 of 6 | 0 of 18 |
| K24R+S25Q+W56D+H98Y | -0.02 | 6 of 6 | 1 of 18 |
| S26Q+W56H+S62D+Q96L | 1.74 | 6 of 6 | 0 of 18 |
| K24A+S25V+Q27F+V29H+W56E+S62Q | 0.26 | 6 of 6 | 0 of 18 |
| L30S+R34E+N35I+W56G | 1.13 | 6 of 6 | 0 of 18 |
| Q27G+L30Y+E32Q+W56R+S58K | not detected | 0 of 6 | 0 of 18 |
| S25L+S33E+W56E | -0.30 | 6 of 6 | 1 of 18 |
| S25Y+V29E+W56G | -0.20 | 6 of 6 | 0 of 18 |
| S25Q+S33G+W56D | -0.30 | 6 of 6 | 0 of 18 |
| S38N+W56D+Q96G+R99Y | 0.78 | 6 of 6 | 1 of 18 |
| S25Q+W56N+S62D+Y97P | 0.62 | 6 of 6 | 0 of 18 |
| S25L+S26E+V29H+W56N+S62V | -0.26 | 6 of 6 | 2 of 18 |
| R34N+W56N | 0.11 | 6 of 6 | 1 of 18 |
| S25L+S26A+V29T+K36P | 0.43 | 6 of 6 | 0 of 18 |
| S25L+Q27C+L30D+E32W+W56G | 0.08 | 6 of 6 | 1 of 18 |
| S25L+L30P+W56N+S62Q | 0.25 | 6 of 6 | 1 of 18 |
| Q27V+Y97T | not detected | 0 of 6 | 0 of 18 |
| S25M+V29W+R34L+W56A+H98S | -0.23 | 6 of 6 | 0 of 18 |
| S25V+S26Q+V29W+L30P+W56N | 0.46 | 6 of 6 | 0 of 18 |
| S25L+S26E+S38A+W56N+E61M | -0.54 | 6 of 6 | 0 of 18 |
| S25L+S38N+W56D+Q96D | -0.33 | 6 of 6 | 1 of 18 |
| S25L+Q27E+W56G | -0.35 | 6 of 6 | 0 of 18 |
| S26Y+Y31L+K36F+W56H+S62D | 0.32 | 6 of 6 | 1 of 18 |
| Q27W+V29W+W56G+T59F | 0.16 | 6 of 6 | 0 of 18 |
| S25V+S26G+K36Q+R99G | 1.91 | 6 of 6 | 0 of 18 |
| S25Q+S28E+V29K+L30G+W56D | not detected | 0 of 6 | 0 of 18 |
| S25L+S33M+W56S | -0.12 | 6 of 6 | 2 of 18 |
| V29G+L30W+Y31N+W56R+S58I | 2.09 | 6 of 6 | 0 of 18 |
| R34L+W56N+S62M | 0.34 | 6 of 6 | 0 of 18 |
| E32Q+W56Q | 2.14 | 5 of 6 | 1 of 18 |
| S25L+S26P+V29H+W56N+E61M | 0.36 | 6 of 6 | 0 of 18 |
| S25L+S26Q+V29F+W56E+E61C | -0.05 | 6 of 6 | 1 of 18 |
| S25H+V29D+W56E | 0.47 | 6 of 6 | 1 of 18 |
| V29W+K36S+W56N+A57G+S62L+Q96D | 0.29 | 6 of 6 | 1 of 18 |
| S25L+S38H | 1.64 | 6 of 6 | 0 of 18 |
| W56G+S62D+Q96D | -0.13 | 6 of 6 | 1 of 18 |
| S25L+V29T+W56D+T59Q | 0.05 | 6 of 6 | 0 of 18 |
| S25L+S28E+V29K+W56D | -0.18 | 6 of 6 | 0 of 18 |

6 of these entries, quoted again:

changes,mean log10 Kd (nM),detected,signal with controls
S38N+W56H+S62D,0.19,6 of 6,0 of 18
S25L+S26D+Q27N+V29T+N35Q,1.11,6 of 6,0 of 18
S26Q+W56H+S62D+Q96L,1.74,6 of 6,0 of 18
S25L+S38N+W56D+Q96D,-0.33,6 of 6,1 of 18
S25I+S28G+R99V,1.83,4 of 6,1 of 18
K24H+S25I+N37G+W56K,0.55,6 of 6,0 of 18